Ab-14 light chain CDR variants: yeast mating affinities

From the AlphaSeq antibody data of Engelhart et al. 2022 (doi:10.1038/s41597-022-01779-4), copy in the FLAb collection.

Target: peptide PDVDLGDISGINAS, taken from heptad repeat 2 (HR2) of SARS-CoV-2 spike.

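Library AAYL50 holds single substitutions and randomly drawn double and triple substitutions in the CDRs. Affinity was read by AlphaSeq, a pooled yeast mating assay with surface-displayed partners. Pairs that bind mate more often; barcode pairs of the diploids are counted by sequencing. A regression on co-assayed BCL2-family reference pairs converts the normalised counts of each replicate to an apparent Kd. The assay was run in three technical replicates.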

Parent: Ab-14, a human scFv built as VH, the linker GGGGSGGGGSGGGGS, VL. Only the CDRs of the light chain vary.
VH: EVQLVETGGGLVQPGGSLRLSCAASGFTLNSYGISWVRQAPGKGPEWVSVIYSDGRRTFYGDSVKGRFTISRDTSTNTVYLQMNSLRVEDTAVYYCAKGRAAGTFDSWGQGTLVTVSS
VL: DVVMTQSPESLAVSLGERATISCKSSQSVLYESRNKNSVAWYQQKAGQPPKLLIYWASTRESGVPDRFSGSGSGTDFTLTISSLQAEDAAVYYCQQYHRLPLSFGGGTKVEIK

Variants are written as CDR1, CDR2 and CDR3 of the light chain (limits as in the source). Parent: KSSQSVLYESRNKNSVA, WASTRES, QQYHRLPLS. Every variant below is changed at R34 of the VL (sequential numbering). Kd is apparent (estimated from mating counts) and averaged on the log scale over replicates with a signal. Smaller is tighter. Where no diploid with the target was found in any replicate, the entry reads "nd": below detection, most likely a poor binder, though not proof of it. In this assay the parent's reference entry averaged 4.4 nM; its copy inside this library read 48 nM. Nonspecific signal, from three strains lacking the peptide, appeared in 18% of pairings of library AAYL50, centred on 15 µM (5% of these signals below 970 nM); values are not corrected for it.

For KTSQSVLSESHNKNSVA / WASTRES / QQYHRLPLS, the assay gave 2.2 nM (3 of 3 replicates). With KSSQSVLYESINKNSVA / WASSRES / QQYHRYPLS the result was 50 nM (3 of 3 replicates). Variant KSSQSVLYESDNKNSVA / WWSTAES / QQYHRLPLS gave nd (0 of 3 replicates). With KSSQSVLYESYNKNSVA / WASNPES / QQYHRLPLS the result was 850 nM (3 of 3 replicates). With KSSQSGLYESANKNSVA / AASTRES / QQYHRLPLS the result was 520 pM (3 of 3 replicates). Variant KSSQSVLYESWNKNSVA / WASTKES / QQYTRLPLS gave 1.9 µM (1 of 3 replicates). With KSSQSVLYESANKNSVP / WASTRES / QQYQRLPLS the result was 38 µM (1 of 3 replicates). Variant KSSQSVLYESHYKNSVA / WASTGES / QQYHRLPLS showed 39 µM (1 of 3 replicates). Variant KSSQSVLYESWNKNSWA / WASTRES / QQYHRLPLS showed 120 µM (3 of 3 replicates).

For KSSQSVLYESVNKNSVA / WASTRES / QQMHRLPLS, the assay gave 70 µM (1 of 3 replicates). Variant KSSQSVLYESYNKNSVA / WAYTRES / QQYHRLSLS gave nd (0 of 3 replicates). For ESSQSVLYESVNKNSVA / WASTRES / RQYHRLPLS, the assay gave nd (0 of 3 replicates). With KSSQSVLYESSNKLSVA / WASTRES / QQYHILPLS the result was 180 nM (1 of 3 replicates). With KSSQSVLYESGNKNSVA / WASTRES / QQYRRLPLH the result was 100 nM (3 of 3 replicates). With KSSQSVLYESENKNSVA / WASTRES / QQYHDEPLS the result was 21 µM (1 of 3 replicates). Variant KSSQSVLEESVNKNSQA / WASTRES / QQYHRLPLS showed 45 µM (1 of 3 replicates). With KSSQSVLYESLNKNSVA / WASTRLS / QQYKRLPLS the result was nd (0 of 3 replicates). Variant KSSQSVLYESLNDNSVA / WARTRES / QQYHRLPLS gave 15 nM (3 of 3 replicates).

Variant KSSQFVLYESIRKNSVA / WASTRES / QQYHRLPLS gave 29 nM (3 of 3 replicates). For KSLQSVLYESGNKNSVA / WASTRES / QQYHRLPYS, the assay gave 290 nM (3 of 3 replicates). Variant KSSQSVLYESSNKNSVA / WASTRES / QQYHRLPLS gave 3.5 nM (3 of 3 replicates). With KSSQSVLYESWCKNSVA / WASTRES / QQYHRMPLS the result was 2.1 µM (3 of 3 replicates). With DSSQSVLYESKNKNSVA / WASTRES / QQYHRLPLS the result was 17 nM (3 of 3 replicates). With KSSQSVRYESENKNSVA / WASTRES / QQYHRLPLS the result was 3.1 nM (3 of 3 replicates). Variant KSSQSVLYESFNKNFVA / WASTRES / QQYHRLPLS showed 62 µM (1 of 3 replicates). For KSSQSVLYESYNKNSVA / WCSTRES / QEYHRLPLS, the assay gave 240 nM (2 of 3 replicates). Variant KSSQSVLYESDNKNSVA / WASTRES / QQYHRLYTS gave 12 µM (1 of 3 replicates).

With WSKQSVLYESPNKNSVA / WASTRES / QQYHRLPLS the result was nd (0 of 3 replicates). For KSSESVLYESCNKNSVA / WASTRES / QQYERLPLS, the assay gave 18 nM (3 of 3 replicates). Variant KSSQSVLYESTNKNSVA / PAWTRES / QQYHRLPLS showed 610 pM (3 of 3 replicates). Variant KSSQSVLYESCNKNGVA / WASVRES / QQYHRLPLS showed nd (0 of 3 replicates). For KSSQSVPEESQNKNSVA / WASTRES / QQYHRLPLS, the assay gave 5.5 nM (3 of 3 replicates). For KSSQSVLYESQNKNSVA / WASTRES / QQYHRLPYS, the assay gave 1.7 µM (3 of 3 replicates). With KSSQSVLYESMNKNSVR / WASTRES / QQYHWLPLS the result was nd (0 of 3 replicates). Variant KCSQSVLYESVHKNSVA / WASTRES / QQYHRLPLS gave 26 nM (3 of 3 replicates). Variant KSYQSVLYESGNKNSVY / WASTRES / QQYHRLPLS gave nd (0 of 3 replicates).

For KSSQSVLHESNNKNSVA / WASTRES / QKYHRLPLS, the assay gave 34 nM (3 of 3 replicates). With KSSQSVLYESMNKNSVA / WASTRRS / QQYHRLPYS the result was nd (0 of 3 replicates).

Repeated from above, the 6 best binders with a signal in all replicates:

{"CDR-L1": "KSSQSGLYESANKNSVA", "CDR-L2": "AASTRES", "CDR-L3": "QQYHRLPLS", "apparent Kd": "520 pM", "replicates with signal": "3/3"}
{"CDR-L1": "KSSQSVLYESTNKNSVA", "CDR-L2": "PAWTRES", "CDR-L3": "QQYHRLPLS", "apparent Kd": "610 pM", "replicates with signal": "3/3"}
{"CDR-L1": "KTSQSVLSESHNKNSVA", "CDR-L2": "WASTRES", "CDR-L3": "QQYHRLPLS", "apparent Kd": "2.2 nM", "replicates with signal": "3/3"}
{"CDR-L1": "KSSQSVRYESENKNSVA", "CDR-L2": "WASTRES", "CDR-L3": "QQYHRLPLS", "apparent Kd": "3.1 nM", "replicates with signal": "3/3"}
{"CDR-L1": "KSSQSVLYESSNKNSVA", "CDR-L2": "WASTRES", "CDR-L3": "QQYHRLPLS", "apparent Kd": "3.5 nM", "replicates with signal": "3/3"}
{"CDR-L1": "KSSQSVPEESQNKNSVA", "CDR-L2": "WASTRES", "CDR-L3": "QQYHRLPLS", "apparent Kd": "5.5 nM", "replicates with signal": "3/3"}